## AlphaSeq binding of Ab-14 light chain variants to a spike HR2 peptide

Reference: Li et al. 2023, doi:10.1038/s41467-023-39022-2. File: FLAb, binding data.

All variants were tested on one target, the spike HR2 peptide PDVDLGDISGINAS (SARS-CoV-2).

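Phage display of a naive human antibody library on the peptide gave the parent. These sequences belong to a second round, designed from the earlier measurements on random variants of the parent. Several design methods are mixed in this list. Affinity was read by AlphaSeq, a pooled yeast mating assay with surface-displayed partners. The frequency of each diploid, read from paired DNA barcodes, reflects how well the two displayed proteins bind. Scores were corrected for input abundance and mapped to Kd with protein pairs of known affinity run in the same pool. There are six technical replicates.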

Parent: Ab-14, a human scFv built as VH, a (GGGGS)3 linker, VL. Only the CDRs of the light chain vary.
VH: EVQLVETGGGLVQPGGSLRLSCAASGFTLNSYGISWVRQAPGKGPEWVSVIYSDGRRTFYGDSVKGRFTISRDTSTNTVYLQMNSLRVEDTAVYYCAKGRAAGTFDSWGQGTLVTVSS
VL: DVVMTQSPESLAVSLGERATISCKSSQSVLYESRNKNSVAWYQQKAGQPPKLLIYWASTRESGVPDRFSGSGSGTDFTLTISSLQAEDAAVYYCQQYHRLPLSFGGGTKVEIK

Variants are written as CDR1, CDR2 and CDR3 of the light chain (limits as in the source). Parent: KSSQSVLYESRNKNSVA, WASTRES, QQYHRLPLS. Values are log10 of the apparent Kd in nM; lower means stronger binding. An entry "n.d." has no value in the source: the pair was not observed among the diploids in that replicate. This suggests poor binding but is not conclusive. The authors' rule: three or more of the six replicates give a measured affinity, fewer mean a poor binder. The range of this assay differs from that of the first round, and the authors advise against merging the two. Nonspecific signal, from three strains lacking the peptide, appeared in 4% of pairings of all light chain designs, centred on 2.64 (5% of these signals below 1.59); values are not corrected for it.

log10 Kd (nM) by replicate,CDR-L1,CDR-L2,CDR-L3
n.d. 2.73 2.92 n.d. 2.67 2.79,KVSEFMRGLMSRKDSIA,DNVTRSN,QQYDRLPLS
0.39 0.47 0.44 0.24 0.35 0.65,KSSQSFLYESRNKNSVA,GASTRES,QQYHRLPLH
-0.48 -0.40 -0.58 -0.63 -0.52 -0.39,KLSQSWEYESRNKNSVA,NASQREV,QQYHRLPLS
0.88 0.87 0.83 0.84 0.80 1.13,MMSQLTYMGSRARNAVA,QAETRVN,QQYHHLPLF
0.19 0.10 0.54 0.06 0.21 0.36,KFSQSQLYESRNKNSVA,NASTRLS,QQYHRLPLS
0.04 -0.42 -0.34 -0.63 -0.34 -0.24,HISMMVGTKGYAKNSVA,NEETRED,QQYHRLPLS
0.47 0.39 0.32 0.37 0.15 0.51,KLNHLSFVHDREWNNVA,DLNVKAS,QQYDRLPLV
n.d. n.d. n.d. n.d. n.d. n.d.,IVSQLMLWGLHYKNSIA,EAQTRLN,QQYDRLPLF
1.35 1.51 1.24 1.28 0.98 1.74,KSSQSVLFESRNKNSVA,DASFRES,SQYHRLPLS
-0.28 -0.40 -0.46 -0.45 -0.42 -0.07,KLSQQMLYESRNHNNVA,AASTRED,QQYHRLPLS
0.70 0.68 0.67 0.75 1.73 1.65,MLSQMWGVGSKMKNSVA,QASMRFN,QQYDRLPLI
1.65 2.39 1.61 1.33 2.09 1.63,TIGQTLMIGMRNRSNVA,EVSQRLN,QQYDRLPLL
1.22 1.48 0.70 0.86 0.99 1.36,KLSSITGHMSTVKNNVA,EMETREN,QQYNRLPLA
-0.18 -0.19 -0.31 -0.37 -0.15 -0.13,KVSQSWLYESRNKNSVA,HASTREQ,QQYHRLPLS
1.60 n.d. 2.92 3.61 n.d. 3.19,MVYESMDQAMRTHNNIA,DNQTRES,QQYDRLPLS
n.d. n.d. n.d. n.d. n.d. n.d.,KSSQSVLYESTNKNSMA,WASMRES,QQYHRLPLS
1.22 1.69 1.71 1.21 2.40 2.98,SMIPFDNQIMKGTNNIA,HVSVRAS,QQYARLPLV
0.23 0.25 0.29 0.09 0.45 -0.17,MLSQVHDYNGYRGNSVA,NVDERNT,QQYKQLPLI
1.29 0.84 1.11 0.81 0.69 0.89,TISQLMNMGQFAINSVA,QASIRNA,QQYDRLPLI
0.08 0.18 0.07 0.03 0.20 0.15,KFQWSNLYESRNKNSVA,NASTRMS,QQYWRLPLS
-0.15 -0.62 -0.53 -0.66 -0.28 -0.05,KVSQSVLMESRNKNSVA,DASTRES,QQYHRLPLS
0.03 -0.06 -0.25 -0.13 -0.12 0.04,KLQQSELYESRNKNSVA,EASTRMS,QQYHRLPLS
0.08 -0.10 -0.39 -0.06 -0.21 -0.01,KSLQSVLYESRNKNSVA,HAETRED,QQYHRLPLS
n.d. 1.73 1.25 1.34 n.d. n.d.,KSSQNVLYESRNKNSVA,WGSTRES,QQYDRLPLS
1.82 1.84 0.93 1.08 1.09 1.87,HIDQQTSYDNGEDRAIA,DVTIRDW,QQYARLPLL
1.42 1.33 1.25 1.49 1.11 1.30,VMQMDNDRANDITYAIA,DVTMREK,QQYNRLPLM
0.20 -0.01 0.01 -0.20 -0.08 0.11,TLSDLMYMESRNYNSVA,DLVKRES,QQYHRLPLS
n.d. n.d. n.d. 2.42 n.d. n.d.,MLSEVLHMLGVKKNSIA,DLVLRAN,QQYARLPLM
0.11 0.09 0.32 0.36 -0.01 0.66,MVTQMAMSGMTNKRSVA,NAETREH,QQYNRLPLI
n.d. 1.04 2.08 1.53 1.61 1.53,MISSLYNMGQFAINSVA,QASTRNE,QQYDRLPLM
0.75 0.52 0.27 0.34 0.48 0.64,SIGGFMKSSMAHMNSVA,DMTNRED,QQYDRLPLS

Extract of 3 entries:

CDR-L1,CDR-L2,CDR-L3,log10 Kd (nM) by replicate
IVSQLMLWGLHYKNSIA,EAQTRLN,QQYDRLPLF,n.d. n.d. n.d. n.d. n.d. n.d.
TIGQTLMIGMRNRSNVA,EVSQRLN,QQYDRLPLL,1.65 2.39 1.61 1.33 2.09 1.63
VMQMDNDRANDITYAIA,DVTMREK,QQYNRLPLM,1.42 1.33 1.25 1.49 1.11 1.30